{"source": "patent US8115060B2", "about": "“Means and methods of controlling plant seed germination” (Applied Biotechnology Institute, Inc., priority 2008, dated 2012)", "key": {"[1]": {"tested_on": "transgenic seedlings (avidin gene)", "text": "To test whether expression of avidin may allow the seeds to germinate but fail to mature or grow at a slower rate we examined the growth of seedlings immediately following germination."}, "[2]": {"tested_on": "transformed cell cultures (avidin gene, barley amylase promoter)", "settings": "multiple lines transferred every two weeks over six weeks; FIG. 4"}, "[3]": {"settings": "3 days after treatment with biotin"}}, "data": [{"smiles": "O=C(O)CCCC[C@@H]1SC[C@@H]2NC(=O)N[C@@H]21", "note": "[biotin]", "values": [{"measurement": "number of plants rated No growth", "setting": "[1]; [3]", "result": 2}, {"measurement": "number of plants rated Rapid growth (root length >= 1 cm)", "setting": "[1]; [3]", "result": 15}, {"measurement": "number of plants rated Slow growth (root length < 1 cm)", "setting": "[1]; [3]", "result": 3}, {"measurement": "growth of transgenic seedlings with biotin compared with without", "setting": "[1]; immediately following germination, vast majority of transgenic seedlings", "result": "grew faster with biotin than without"}, {"measurement": "growth of cultures with or without biotin in the media", "setting": "[2]", "result": "no significant difference in growth"}]}]}
